# Data from patent US20100273780A1, “SUBSTITUTED 8-HETEROARYL XANTHINES” (PGXHEALTH, LLC, priority 2003, published 2010).
# Target: T1, rat A2B receptors (rA2B) (Rattus norvegicus, UniProt P29276)
# T1 construct: expressed in transfected cells; host or cells: HEK-293 cells, stably transfected (G418 selection); membranes
# T1 sequence (P29276 1-332): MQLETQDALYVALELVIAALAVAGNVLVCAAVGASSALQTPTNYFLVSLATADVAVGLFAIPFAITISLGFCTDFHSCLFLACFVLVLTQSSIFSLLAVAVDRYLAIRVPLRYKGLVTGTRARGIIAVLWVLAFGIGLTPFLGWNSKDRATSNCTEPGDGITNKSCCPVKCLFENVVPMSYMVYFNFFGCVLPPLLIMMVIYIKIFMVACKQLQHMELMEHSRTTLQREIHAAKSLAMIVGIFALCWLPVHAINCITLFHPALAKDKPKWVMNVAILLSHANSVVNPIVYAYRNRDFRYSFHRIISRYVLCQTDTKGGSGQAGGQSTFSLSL
# Experiment: Radioligand competition binding (125I-ABOPX) at rat A2B receptors in HEK-293 membranes
# Settings: displacement of specific [125I]ABOPX binding at rat A2B receptors expressed in HEK-293 cells; read-out: RatA2B Ki
# Procedure: The plasmid was amplified in competent JM109 cells and plasmid DNA isolated using Wizard Megaprep columns (Promega Corporation, Madison, Wis.).
# Transfected HEK cells were grown under 5% CO2/[…] humidified atmosphere at a temperature of 37° C. Colonies were selected by growth of cells in 0.6 mg/mL G418. Transfected cells were maintained in DMEM supplemented with Hams F12 nutrient mixture (1/1), 10% newborn calf serum, 2 mM glutamine and containing 50 IU/mL penicillin, […], and 0.2 mg/mL Geneticin (G418, Boehringer Mannheim). Cells were cultured in 10 cm diameter round plates and subcultured when grown confluent (approximately after 72 hours).
# At A2B receptors: Confluent monolayers of HEK-A2B cells were washed with PBS followed by ice cold Buffer A (10 mM HEPES, 10 mM EDTA, pH 7.4) with protease inhibitors (10 μg/mL benzamidine, 100 μM phenylmethanesulfonyl fluoride, and 2 μg/mL of each aprotinin, pepstatin and leupeptin). The cells were homogenized in a Polytron (Brinkmann) for 20 s, centrifuged at 30,000×g, and the pellets washed twice with buffer HE (10 mM HEPES, 1 mM EDTA, pH 7.4 with protease inhibitors). The final pellet was resuspended in buffer HE, supplemented with 10% sucrose and frozen in aliquots at −80° C. For binding assays membranes were thawed and diluted 5-10 fold with HE to a final protein concentration of approximately 1 mg/mL. To determine protein concentrations, membranes, and bovine serum albumin standards were dissolved in 0.2% NaOH/0.01% SDS and protein determined using fluorescamine fluorescence. Stowell, C.
# After incubation, 20 minutes at room temperature, 50 μL, of 10 mg/mL Na-metabisulfite in water was added to quench the reaction. […]
# Radioligand binding experiments were performed in triplicate with 20-25 μg membrane protein in a total volume of 0.1 mL HE buffer supplemented with 1 U/mL adenosine deaminase and 5 mM MgCl2. […] Nonspecific binding was measured in the presence of 100 μM NECA. […] Bmax and KD values were calculated by Marquardt's nonlinear least squares interpolation for single a site binding models. […]
row,Substance,Ki [nM]
1,"1,3-Diethyl-8-[6-[N-nicotinoylmethylamino]-3-pyridyl)xanthine [Compound 64]",< 500
2,"1,3-Dipropyl-8-[6-[N-nicotinoylmethylamino]-3-pyridyl)xanthine [Compound 47]",< 500
3,"1-Propargyl, 3-methyl-8-[6-[N-nicotinoylmethylamino]-3-pyridyl)xanthine [Compound 101]",< 500
